These results are taken from PubChem BioAssay AID1508642 (National Center for Advancing Translational Sciences (NCATS), 2021).

The list shows a part of the results, in another mix than the full data. Some tests of the compounds listed are not included; inactive here does not mean inactive elsewhere. Results filed as inconclusive are left out. Activity calls are given as the source filed them. The call rests on the fitted dose curve; in most records, active means well fitted cell-killing curve with a large enough effect; inconclusive means small, poorly fitted or top-dose-only effect, or effect the other way; inactive means flat fitted curve, though single readings scatter.
On the % scale 0 is the no-effect control and ±100 the full control effect.

The experiment can be described thus: Cell viability qHTS assay in S16 Pmp22-F2sN cells. Further: nearly all actives have a fitted effect of over 65% in size. Conditions: S16 Pmp22-F2sN Schwann cells (luciferase reporters placed in the Pmp22 gene) viability, CellTiter-Glo, 24 h; at 57.5 µM (top of the series). From the text:
Assay Provider: Jim Inglese Ph.D. National Center for Advancing Translational Science, National Institutes of Health, Rockville, MD CMT is a heterogeneous group of neurological disorders that affect approximately 1 in 2,500 people. In particular, the most common form of CMT, CMT1A is genetically linked to the duplication of the PMP22 gene which leads to Schwann cell overexpression, thus manifesting itself as a typical case of dose-sensitive diseases. To identify small molecule compounds that can mediate the expression of PMP22 we developed a phenotypic assay screening strategy by utilizing genome editing techniques to construct Schwann cell lines containing novel reporter technology to monitor the transcriptional or translational regulation of PMP22. For high sensitivity we use a bioluminescent reporter system embedded in the 3' UTR of the PMP22 gene (S16(c9) Pmp22-F2sN) to identify compounds that inhibit gene expression. […] We can further discriminate the effect of all transcriptionally active molecules on PMP22 translation or stability with an assay that incorporates a short NLuc peptide (HiBiT) at the C-terminus of expressed PMP22 (S16(f8) PMP22-HiBiT) allowing alpha complementation and luminescence detection of membrane-associated PMP22 protein. These assays were screened against the NCATS Sytravon Library Collection. Miniaturization of these assays to 1536-well plate format for quantitative high throughput screening (qHTS) yielded rich data sets immediately from the qHTS assay (S16(c9) Pmp22-F2sN), when compared with data from a cell viability assay (Cell TiterGlo) to identify compounds that decreased the output signals through cellular toxicity to streamline the selection process of actives for subsequent characterization using the HiBiT assay (S16(f8) PMP22-HiBiT).
Cell viability assay in S16 Pmp22-F2sN cells PROTOCOL TABLE (format as described by Inglese J, Shamu CE and Guy RK. 2007) SEQUENCE No. (e.g., 1, 2, 3, etc.); […] (e.g., Cells, Incubation, Reagent, etc.); VALUE and DESCRIPTION. 1. Cells. Add 500-1,000 cells in 4 uL in growth media (DMEM High Glucose, No Phenol Red media + 10% heat-inactivated FBS + 1% Pen/Strep supplemented media) per well into Greiner 1536-well white/solid bottom high base, TC-treated plates. 2. Compounds. Library compounds and controls added at 23nL per well, transferred by Pin Tool. 3. Incubation. Incubate plates at 37C, 5% CO2, 95% RH for 24 h. 4. Reagent. Add 3uL CellTiter-Glo per well of Greiner 1536-well plates. 5. Incubation. Incubate plates at room temperature for 15 min., protect from light. 6. Detector. FLuc luminescence measured using CCD-based camera (Viewlux). NOTES (numbers refer to Sequence numbers above; values are from representative experiments) 6. Luminescence Read: Clear filter; Exposure = 1 sec, Gain = High, Speed = Slow, Binning = 2X REFERENCES: 1. Inglese J, Shamu CE and Guy RK, Reporting data from high throughput screening of small molecule libraries, Nature Chemical Biology, 2007, 3(8): 438-441. doi.org/10.1038/nchembio0807-438 2. Yasgar A, Shinn P, Jadhav A, Auld DS, Michael S, Zheng W, Austin CP, Inglese J and Simeonov A, Compound Management for Quantitative High-Throughput Screening. J. Assoc. Lab. Auto., 2008, 13: 79-89. doi: 10.1016/j.jala.2007.12.004
Consider `COc1ccc(C(=O)NCC2(N(C)C)CCCCC2)cc1Cl`, for which the activity change, negative = cytotoxicity was inactive: -4.76%.

Regarding `COc1cccc(C(=O)NCC2(N3CCOCC3)CCCCC2)c1`, the activity change, negative = cytotoxicity is inactive: 9.46%.

Take `CC(C)Oc1ccc(C(=O)NCC2(N(C)C)CCCCC2)cc1`: the activity change, negative = cytotoxicity was inactive: 4%.

With `COc1cc(C(=O)NCC2(N(C)C)CCCCC2)cc(OC)c1OC`, the activity change, negative = cytotoxicity was inactive: 0.53%.

Regarding `Cc1cccc(C(=O)NCC2(N(C)C)CCCCC2)c1`, the activity change, negative = cytotoxicity is inactive: 9.98%.

Consider `CN(C)C1(CNC(=O)c2ccccc2F)CCCCC1`, for which the activity change, negative = cytotoxicity was inactive: 15.9%.

Regarding `CN(C)C1(CNC(=O)c2cccc(Cl)c2)CCCCC1`, the activity change, negative = cytotoxicity is inactive: -2.35%.

As to `CCCCOc1ccccc1C(=O)NCC1(N(C)C)CCCCC1`, the activity change, negative = cytotoxicity was inactive: 11.1%.

`CN(C)C1(CNC(=O)c2ccccc2[N+](=O)[O-])CCCCC1`: the activity change, negative = cytotoxicity was inactive: 13%.

Take `CCOc1cccc(C(=O)NCC2(N(C)C)CCCCC2)c1`: the activity change, negative = cytotoxicity was inactive: 11.6%.
